The entries are a selection whose mix differs from that of the whole data set. Active and inactive are the calls of the source.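 Rule for the calls: active = activation, as change over the incubation, above the mean of all tested compounds plus 3 SD (cut at about 13% in these data); inactive = the rest.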

Amino acid sequences for entries named in this document (tags omitted).
UniProt P49862, whole entry: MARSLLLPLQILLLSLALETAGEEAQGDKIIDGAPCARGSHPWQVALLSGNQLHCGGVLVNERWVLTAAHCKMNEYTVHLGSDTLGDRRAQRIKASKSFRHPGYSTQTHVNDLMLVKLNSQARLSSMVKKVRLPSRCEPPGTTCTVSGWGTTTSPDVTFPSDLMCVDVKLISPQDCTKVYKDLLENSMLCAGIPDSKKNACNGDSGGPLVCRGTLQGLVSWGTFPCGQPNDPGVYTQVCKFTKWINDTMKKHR

In this assay the target is Kallikrein-7 (Homo sapiens) (UniProt P49862). The assay can be described thus: activation of human kallikrein-7 proenzyme – biochemical, fluorescence intensity, triplicate, confirmation (AID 686949). The following applies: purified proKLK7, EDANS-DABCYL substrate fluorescence; at 7 µM; hits give high values; scaled: vehicle 0, mature enzyme 100.
With `Nc1ccc2c(ccc3cccnc32)n1.O=[N+]([O-])c1cc([N+](=O)[O-])c(O)c([N+](=O)[O-])c1`, the activation was inactive: 8.76%.

(Values after PubChem BioAssay AID686949 (The Scripps Research Institute Molecular Screening Center, 2013).)
